System: H9c2 cells
Assay: Cytotoxicity study in normoxia condition, MTT cell viability assay
Type: cell-based, rat
Protocol: Embryonic rat heart derived cell line H9c2 (2-1), shorted in H9c2 cells, was purchased from ATCC (CRL-1446), which is a permanent cell line and derived from embryonic BDIX rat ventricular heart tissue. Dulbecco's Modified Eagle Medium, Fetal Bovine Serum, and Penicillin-Streptomycin-Glutamine, 2.5% Trypsin/EDTA solution, Phosphate-buffered saline from GIBCO® (Invitrogen™) were used.
H9c2 cells were cultured in DMEM medium supplemented with 10% fetal bovine serum, 1% glutamine, 50 U/ml penicillin and […] streptomycin. The culture atmosphere for H9c2 cells was 95% air with 5% carbon dioxide (CO2) at 37.0° C. The medium was replaced every 2-3 days. A stock of cells was grown in a 100 cm^2 culture dish and split before confluence at a subcultivation ratio of 1:4. Cells used for experiments were seeded at a density of 1.0×10^4 cells/well in a 96-well culture plate, and cells in each well were allowed to grow to 60-80% confluence within 24 h prior to drug treatment.
The cell viability was measured using the MTT colorimetric assay, which was based on the conversion of MTT to formazan crystals by mitochondrial dehydrogenase. Briefly, H9c2 cells were seeded in 96-well plates at 1×10^4 cells/well and incubated at 37° C. for 48 h. The cells were then treated with DMSO (H/R control), diazoxide (50 μM). Compounds A-G (at two concentrations of 12.5 μM or 25 μM) and incubated under hypoxia condition. The cells without any treatment and incubated under normoxia condition were used as normal control. At the end of the treatments, […] MTT (5 mg/ml) was added for 4 h and then […] MTT buffer (10% SDS solution, pH7.4) was added to each well. After overnight incubation and 30 s vibration, the absorbance was read at 490 nm wavelength. Results were expressed as the ratio of the number of viable cells with treatments relative to that of the normoxia control. […]
Results were expressed as the ratio of the number of viable cells with treatments relative to that of the positive control.

3-O-[β-D-glucopyranosyl(1→2)-β-D-glucopyranosyl]-3β,12β,20(S),25-tetra-hydroxydammar-23-ene [Compound B]
cytotoxicity under normoxia condition (12.5 μM, vs untreated control): no statistically significant cytotoxicity
cytotoxicity under normoxia condition (25 μM, vs untreated control): no statistically significant cytotoxicity
cytotoxicity under normoxia condition (equivalent dosages): no significant cytotoxicity

Reference: patent US9273088B2, “Ginsenoside derivative compounds and the use thereof in protection against ischemia/reperfusion injury” (Macau University of Science and Technology, priority 2013, dated 2016)
